scFv variants of Ab-14 (light chain) against a SARS-CoV-2 spike peptide

Binding partner: SARS-CoV-2 spike HR2 peptide, sequence PDVDLGDISGINAS.

Parent: Ab-14, a human scFv built as VH, the linker GGGGSGGGGSGGGGS, VL. Only the CDRs of the light chain vary.
VH: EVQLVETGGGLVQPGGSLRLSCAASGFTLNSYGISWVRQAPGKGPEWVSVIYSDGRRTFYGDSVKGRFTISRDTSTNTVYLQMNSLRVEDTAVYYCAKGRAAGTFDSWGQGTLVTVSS
VL: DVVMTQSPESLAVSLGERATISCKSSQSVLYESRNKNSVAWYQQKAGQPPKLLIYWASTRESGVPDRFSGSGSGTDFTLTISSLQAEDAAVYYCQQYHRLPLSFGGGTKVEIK

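Phage display of a naive human antibody library on the peptide gave the parent. The library (AAYL50) carries one to three amino acid substitutions per variant, with no insertions or deletions. The assay is AlphaSeq: two haploid yeast populations carry antibody and antigen on their surface. The frequency of each diploid, read from paired DNA barcodes, reflects how well the two displayed proteins bind. A regression on co-assayed BCL2-family reference pairs converts the normalised counts of each replicate to an apparent Kd. The assay was run in three technical replicates.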

Variants are written as CDR1, CDR2 and CDR3 of the light chain (limits as in the source). Parent: KSSQSVLYESRNKNSVA, WASTRES, QQYHRLPLS. All variants listed here change S103 of the VL, counted from its first residue. Values are log10 of the apparent Kd in nM; lower means stronger binding. Averages over replicates are reported, and they cover detected replicates only. Where no diploid with the target was found in that replicate, the entry reads "nd": below detection, most likely a poor binder, though not proof of it. As a blank, each scFv also met three strains without target: over library AAYL50, 18% of these pairings were detected, typically at 4.19 and seldom below 2.99. For each scFv, signals with the empty controls are counted beside the result.

With KSSQYVLYESRNKNSRA | WASTRES | QQYHRLPLC the result was nd, 4.16, nd (controls 4 of 9). With KSSQSVLYESRNKNSVA | WASTRES | QRYHRLPLG the result was nd, nd, 3.47 (controls 3 of 9). Variant KSSQSVLYESRNKNIVA | WASTRES | QQYHRLPEA showed nd, nd, nd (controls 1 of 9). With KSSQSVLYCGRNKNSVA | WASTRES | QQYHRLPLH the result was nd, nd, nd (controls 2 of 9). With KSSQSVLPESRNKNSVA | WASTRES | QQYHRLPYW the result was 1.61, 1.78, 1.98 (mean 1.79; controls 2 of 9). Variant KSSQSVLYEWRNKNSVA | IASTRES | QQYHRLPLF showed nd, nd, nd (controls 2 of 9). For KSSQSVLYCSRNKNSVA | WASTRES | IQYHRLPLK, the assay gave nd, 4.78, nd (controls 0 of 9). Variant KVSQSVLKESRNKNSVA | WASTRES | QQYHRLPLL showed 0.16, 0.39, 0.25 (mean 0.27; controls 1 of 9).

Variant KSSHSVLYESRNKNSVA | IASTRES | QQYHRLPLR gave nd, nd, nd (controls 0 of 9). With KSCQSVLYESRNKNSVA | WASTRES | QQQHRLPLP the result was nd, nd, nd (controls 0 of 9). Variant KSSQSVLYESRNKNSYA | WASTRAS | QQYHRLPLH gave 3.32, nd, nd (controls 0 of 9). For KSSQSVLYESRNKNSVA | WASTRES | QQYHRLPLY, the assay gave 1.95, 1.87, 2.10 (mean 1.97; controls 2 of 9). Variant KSSQSVLYESREKISVA | WASTRES | QQYHRLPLQ showed nd, nd, nd (controls 0 of 9). Variant KSSQSVSYESRNKNSVA | WASTMES | QQYHRLPLN showed 3.28, nd, 3.22 (mean 3.25; controls 0 of 9). With KSDQSVLYRSRNKNSVA | WASTRES | QQYHRLPLR the result was nd, nd, 3.09 (controls 1 of 9). Variant KSSQSVLYESRNKNSVA | WAMTRES | QQYHRLYLY gave 2.09, 1.81, 2.11 (mean 2.00; controls 5 of 9).

Variant KSSQSVLYESRNKNSVA | WASTREY | QQQHRLPLE showed 0.81, 1.17, 0.96 (mean 0.98; controls 2 of 9). Variant KSSQSVLYESRNKNSVA | HASTRES | QQYHRLPLT showed 0.17, 0.41, 0.25 (mean 0.27; controls 0 of 9). Variant KDSQSVLYESRNANSVA | WASTRES | QQYHRLPLI gave nd, 1.53, 1.65 (mean 1.59; controls 0 of 9). With KSSQSVLYESRNKNSVA | WASTRES | QQPHRLPLI the result was nd, nd, nd (controls 5 of 9). Variant KSSQSVLYESRNKNSVA | WASTRES | QQYHRLPLV gave 0.85, 1.06, 0.97 (mean 0.96; controls 0 of 9). Variant PSSQSVLYESRNMNSVA | WASTRES | QQYHRLPLA showed nd, nd, nd (controls 0 of 9). Variant KSSQSVLYESGNKNSVA | WASARES | QQYHRLPLW gave 2.72, 2.79, 3.24 (mean 2.92; controls 4 of 9). Variant KSSQMILYESRNKNSVA | WASTRES | QQYHRLPLW gave 1.43, 1.28, 1.35 (mean 1.35; controls 2 of 9).

With KSSYSVLYESRNKTSVA | WASTRES | QQYHRLPLH the result was 1.92, 1.92, 1.90 (mean 1.92; controls 0 of 9). Variant KSSQSVLYESRNKFSVA | WAKTRES | QQYHRLPLG gave 3.21, 4.66, nd (mean 3.93; controls 2 of 9). Variant KSSQSVLYESRNKNSVA | WASTRAS | QFYHRLPLK gave nd, nd, nd (controls 0 of 9). For KSSQSVLYESRLKNSVA | WASTRGS | QQYHRLPLW, the assay gave 4.40, 3.14, 3.42 (mean 3.65; controls 2 of 9). For KSSQSVLYESRNKNSVA | WASTRES | QQYHRLTNW, the assay gave 0.20, 0.71, 0.06 (mean 0.33; controls 0 of 9). Variant KSSQEVLYESTNKNSVA | WASTRES | QQYHRLPLW gave 2.96, 2.66, 3.22 (mean 2.94; controls 0 of 9). Variant KSSQSVLNESRNKNSVA | WASTRES | QQYHALPLK gave 1.63, 1.86, 1.73 (mean 1.74; controls 0 of 9). With KVSQSGLYESRNKNSVA | WASTRES | QQYHRLPLN the result was -0.04, 0.29, 0.14 (mean 0.13; controls 1 of 9).

Variant KSSQSVMYESRNKNSVA | WASTRLS | QQYHRLPLD showed 3.93, 2.08, 2.39 (mean 2.80; controls 2 of 9). With PSSQSVLYESRNKNSVA | WASTRES | QQYHRLPHY the result was nd, nd, nd (controls 0 of 9).

In this assay the parent's reference entry averaged 0.65; its copy inside this library read 1.68.

Data: MIT Lincoln Laboratory AlphaSeq set, Engelhart et al. 2022, doi:10.1038/s41597-022-01779-4, as distributed in FLAb.